# Counter-ions that a name gives are not always drawn.
# By UniProt entry, the sequences of proteins in these tests, tags left out. Residues count along the entry.
# UniProt P00533, 25-1210 T790M/L858R limits assumed: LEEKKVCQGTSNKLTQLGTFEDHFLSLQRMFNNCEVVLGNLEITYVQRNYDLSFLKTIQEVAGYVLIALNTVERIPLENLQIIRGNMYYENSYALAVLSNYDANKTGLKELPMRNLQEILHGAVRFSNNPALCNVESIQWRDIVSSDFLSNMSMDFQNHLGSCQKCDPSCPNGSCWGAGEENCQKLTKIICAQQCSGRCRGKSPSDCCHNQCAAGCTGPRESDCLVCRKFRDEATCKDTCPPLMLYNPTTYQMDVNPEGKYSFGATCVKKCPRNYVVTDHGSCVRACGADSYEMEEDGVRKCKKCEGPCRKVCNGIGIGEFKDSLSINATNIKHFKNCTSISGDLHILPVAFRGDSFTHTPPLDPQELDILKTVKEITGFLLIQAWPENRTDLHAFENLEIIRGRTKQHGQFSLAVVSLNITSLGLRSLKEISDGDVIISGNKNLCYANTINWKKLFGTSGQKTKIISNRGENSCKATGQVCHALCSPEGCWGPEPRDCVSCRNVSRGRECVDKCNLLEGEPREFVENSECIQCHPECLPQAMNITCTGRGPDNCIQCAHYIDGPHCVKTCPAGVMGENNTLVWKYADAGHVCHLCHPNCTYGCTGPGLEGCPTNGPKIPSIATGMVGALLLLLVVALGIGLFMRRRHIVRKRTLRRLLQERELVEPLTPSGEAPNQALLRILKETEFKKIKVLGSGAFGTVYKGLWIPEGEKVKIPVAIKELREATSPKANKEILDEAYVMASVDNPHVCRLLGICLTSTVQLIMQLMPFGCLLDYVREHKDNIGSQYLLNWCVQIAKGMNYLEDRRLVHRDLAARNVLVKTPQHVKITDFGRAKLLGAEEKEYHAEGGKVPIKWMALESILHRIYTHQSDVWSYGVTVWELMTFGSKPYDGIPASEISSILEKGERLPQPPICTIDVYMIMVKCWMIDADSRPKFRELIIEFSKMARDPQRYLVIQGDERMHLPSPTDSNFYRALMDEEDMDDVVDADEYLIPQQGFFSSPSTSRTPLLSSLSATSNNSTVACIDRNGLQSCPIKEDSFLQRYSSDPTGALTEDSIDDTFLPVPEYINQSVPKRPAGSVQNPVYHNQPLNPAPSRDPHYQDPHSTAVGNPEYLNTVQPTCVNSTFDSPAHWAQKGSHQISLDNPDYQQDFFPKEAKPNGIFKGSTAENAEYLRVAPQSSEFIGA
# Target: EGFR T790M L858R (Homo sapiens, UniProt P00533, L858R/T790M)
# Test: biochemical
# Details: EGFR(T790M/L858R) Ki (μM), 5 μM ATP, 30 min, room temperature; apparent Ki (Morrison) converted by Cheng-Prusoff, Km of ATP 1.3 μM
row,Ki [µM],SMILES
1,0.0477,"COC1CCN(c2nccc(Nc3cc4c(cn3)nc(C)n4Cc3ccccc3)n2)CC1 [Example 356, 1-Benzyl-N-[2-(4-methoxy-1-piperidyl)pyrimidin-4-yl]-2-methyl-imidazo[4,5-c]pyridin-6-amine]"
2,0.235,"CC(C)n1c(CO)nc2cnc(Nc3ccnc(C4=CCOCC4)n3)cc21 [Example 573, {6-[2-(3,6-Dihydro-2H-pyran-4-yl)pyrimidin-4-ylamino]-1-isopropyl-1H-imidazo[4,5-c]pyridin-2-yl}methanol]"
3,0.0744,"Cc1nc2cnc(Nc3ccnc(N4Cc5cn[nH]c5C(C)(C)C4)n3)cc2n1C(C)C [Example 111, N-(2-(7,7-dimethyl-6,7-dihydro-1H-pyrazolo[4,3-c]pyridin-5(4H)-yl)pyrimidin-4-yl)-1-isopropyl-2-methyl-1H-imidazo[4,5-c]pyridin-6-amine]"
4,0.694,"Cc1nc2cnc(Nc3ccnc(N4CC[C@@H]5OC(=O)N[C@@H]5C4)n3)cc2n1C(C)C (racemic) [Example 498, (±)-(cis)-5-(4-((1-Isopropyl-2-methyl-1H-imidazo[4,5-c]pyridin-6-yl)amino)pyrimidin-2-yl)hexahydrooxazolo [4,5-c]pyridin-2(3H)-one]"
5,0.092,"Cc1nc2cnc(Nc3ccnc(N4CCCCC4C(F)(F)F)n3)cc2n1C(C)C (racemic) [Example 530, (±)-(1-Isopropyl-2-methyl-1H-imidazo[4,5-c]pyridin-6-yl)[2-(2-trifluoromethyl-piperidin-1-yl)pyrimidin-4-yl]amine]"
6,0.0919,CC(C)n1cnc2cnc(Nc3ccnc(NCC4CC45CCNCC5)n3)cc21 (stereo not drawn) [Example 234]
7,0.000792,"CNc1nc(C)c(-c2nccc(Nc3cc4c(cn3)nc(C)n4C(C)C)n2)s1 [Example 611, (1-Isopropyl-2-methyl-1H-imidazo[4,5-c]pyridin-6-yl)-[2-(4-methyl-2-methylaminothiazol-5-yl)pyrimidin-4-yl]amine]"
8,0.00231,"COC1CCN(c2nccc(Nc3cc4c(cn3)c(-c3cnn(CCO)c3)cn4C(C)C)n2)CC1 [Example 402, 2-(4-(1-isopropyl-6-((2-(4-methoxypiperidin-1-yl)pyrimidin-4-yl)amino)-1H-pyrrolo[3,2-c]pyridin-3-yl)-1H-pyrazol-1-yl)ethanol]"
9,0.031,"COc1ccc(-c2nccc(Nc3cc4c(cn3)ncn4C(C)C)n2)cc1 [Example 53, 1-Isopropyl-N-(2-(4-methoxyphenyl)pyrimidin-4-yl)-1H-imidazo[4,5-c]pyridin-6-amine]"
10,1.78,CC(C)n1cnc2cnc(Nc3ccnc(N4CCC(CN)C4)n3)cc21 (stereo not drawn) [Example 219]
11,0.00178,"CO[C@H]1CCN(c2nccc(Nc3cc4c(cn3)c(C(=O)NC3CCOCC3)cn4C(C)C)n2)C[C@H]1F [Example 381, 6-((2-((3R,4S)-3-fluoro-4-methoxypiperidin-1-yl)pyrimidin-4-yl)amino)-1-isopropyl-N-(tetrahydro-2H-pyran-4-yl)-1H-pyrrolo [3,2-c]pyridine-3-carboxamide]"
12,0.975,CC(C)n1cnc2cnc(Nc3ccnc(NCC4CCCOC4)n3)cc21 (stereo not drawn) [Example 206]
13,0.0224,"CCC(C)(CNc1nccc(Nc2cc3c(cn2)nc(C)n3C(C)C)n1)C(N)=O (stereo not drawn) [Example 300, 2-{[4-(1-Isopropyl-2-methyl-1H-imidazo[4,5-c]pyridin-6-ylamino)pyrimidin-2-ylamino]methyl}-2-methylbutyramide]"
14,0.0184,"CS[C@H]1CCN(c2nccc(Nc3cc4c(cn3)nc(CO)n4C(C)C)n2)C[C@H]1F (racemic) [Example 622, (±)-{6-[2-(cis-3-Fluoro-4-methylsulfanylpiperidin-1-yl)pyrimidin-4-ylamino]-1-isopropyl-1H-imidazo[4,5-c]pyridin-2-yl}methanol]"
15,0.0412,"CC(C)n1cc(N(C)C(=O)CO)c2cnc(Nc3ccnc(-c4cnn(S(=O)(=O)C5CC5)c4)n3)cc21 [Example 390, N-(6-((2-(1-(cyclopropylsulfonyl)-1H-pyrazol-4-yl)pyrimidin-4-yl)amino)-1-isopropyl-1H-pyrrolo[3,2-c]pyridin-3-yl)-2-hydroxy-N-methylacetamide]"
16,1.01,"COC1CCN(c2nccc(Nc3cc4nc(-c5cn[nH]c5)n(C)c4cn3)n2)CC1 [Example 25, [2-(4-Methoxypiperidin-1-yl)pyrimidin-4-yl]-[3-methyl-2-(1H-pyrazol-4-yl)-3H-imidazo[4,5-c]pyridin-6-yl]amine dihydrochloride]"
17,0.0886,"COC1CCN(c2nccc(Nc3cc4c(cn3)c(C(=O)N3CCOCC3)cn4C(C)C)n2)CC1 [Example 118, (1-isopropyl-6-((2-(4-methoxypiperidin-1-yl)pyrimidin-4-yl)amino)-1H-pyrrolo[3,2-c]pyridin-3-yl)(morpholino)methanone]"
18,0.559,CC(C)n1cnc2cnc(Nc3ccnc(N4C[C@@H]5[C@H](C4)[C@H]5C(N)=O)n3)cc21 [Example 239]
19,0.148,"CC(C)n1c(CO)nc2cnc(Nc3ccnc(N4CCCCC4C(F)(F)F)n3)cc21 (racemic) [Example 531, (±)-{1-Isopropyl-6-[2-(2-trifluoromethylpiperidin-1-yl)pyrimidin-4-ylamino]-1H-imidazo[4,5-c]pyridin-2-yl}methanol]"
20,0.0254,Cc1nc2cnc(Nc3ccnc(N4CC[C@](C)(O)[C@H](F)C4)n3)cc2n1C(C)C [Example 672]
21,0.0785,"COC1(CO)CCN(c2nccc(Nc3cc4c(cn3)nc3n4C(C)(C)CO3)n2)CC1 [Example 533, (1-(4-((3,3-dimethyl-2,3-dihydrooxazolo[3′,2′:1,2]imidazo [4,5-c]pyridin-6-yl)amino)pyrimidin-2-yl)-4-methoxypiperidin-4-yl)methanol]"
22,0.266,"Cc1nc2cnc(Nc3ccnc(-c4ccc(C(N)=O)nc4)n3)cc2n1C(C)C [Example 313, 5-[4-(1-Isopropyl-2-methyl-1H-imidazo[4,5-c]pyridin-6-ylamino)pyrimidin-2-yl]pyridine-2-carboxylic acid amide]"
23,0.0708,CC(C)n1cnc2cnc(Nc3ccnc(N4CC5CC4CC5F)n3)cc21 (stereo not drawn) [Example 191]
24,0.345,"CNC(=O)C(C)(C)CNc1nccc(Nc2cc3c(cn2)nc(C)n3C(C)C)n1 [Example 463, 3-(4-(1-isopropyl-2-methyl-1H-imidazo[4,5-c]pyridin-6-ylamino)pyrimidin-2-ylamino)-N,2,2-trimethylpropanamide]"
25,0.0566,"Cc1nc2cnc(Nc3ccnc(N4Cc5c[nH]nc5C4)n3)cc2n1C(C)C [Example 496, 1-Isopropyl-2-methyl-N-(2-(pyrrolo[3,4-c]pyrazol-5(2H,4H,6H)-yl)pyrimidin-4-yl)-1H-imidazo[4,5-c]pyridin-6-amine]"
26,0.00978,"Cc1nc2cnc(Nc3ccnc(N4CCC5(CC4)OCCO5)n3)cc2n1C(C)C [Example 506, N-(2-(1,4-Dioxa-8-azaspiro[4.5]decan-8-yl)pyrimidin-4-yl)-1-isopropyl-2-methyl-1H-imidazo[4,5-c]pyridin-6-amine]"

row,SMILES,Ki [µM]
1,"CCC(C)n1cnc2cnc(Nc3ccnc(N4CCC(OC)CC4)n3)cc21 (single isomer, unassigned) [Example 33, ((R) or (S) 1-sec-Butyl-1H-imidazo[4,5-c]pyridin-6-yl)-[2-(4-methoxypiperidin-1-yl)pyrimidin-4-yl]amine]",0.0225
